Measured values from US20040038861A1, “Methods and compositions for normalizing lipid levels in mammalian tissues” (priority 2001, published 2004).

Chains of the proteins cited; added tags and fusions are not shown. Residues count along the entry.
metabolic amylin receptor (Rattus norvegicus, UniProt P32214), UniProt Q9JJ74, 27-148 partner: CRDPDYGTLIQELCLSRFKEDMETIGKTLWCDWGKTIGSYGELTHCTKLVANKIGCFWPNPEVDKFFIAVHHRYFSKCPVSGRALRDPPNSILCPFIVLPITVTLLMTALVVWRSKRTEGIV

Legend:
[1] = target: T1, murine ramp 1/C1ins− receptor (Mus musculus, UniProt Q60755+Q9WTJ5); experiment: Radioligand binding and displacement of [3H]amylin in L6 myoblasts co-transfected with murine ramp 1 and C1ins−; conditions: for IC50: displacement of [3H]amylin (20 nM), co-transfected L6 myoblasts; for Ki: read-out: K1
T1 construct: expressed in transfected cells; host or cells: L6 myoblasts (ATCC), transient co-transfection of pcDNA3.1 plasmids
T1 sequence (Q60755 42-496 isoform Q60755-2 limits assumed): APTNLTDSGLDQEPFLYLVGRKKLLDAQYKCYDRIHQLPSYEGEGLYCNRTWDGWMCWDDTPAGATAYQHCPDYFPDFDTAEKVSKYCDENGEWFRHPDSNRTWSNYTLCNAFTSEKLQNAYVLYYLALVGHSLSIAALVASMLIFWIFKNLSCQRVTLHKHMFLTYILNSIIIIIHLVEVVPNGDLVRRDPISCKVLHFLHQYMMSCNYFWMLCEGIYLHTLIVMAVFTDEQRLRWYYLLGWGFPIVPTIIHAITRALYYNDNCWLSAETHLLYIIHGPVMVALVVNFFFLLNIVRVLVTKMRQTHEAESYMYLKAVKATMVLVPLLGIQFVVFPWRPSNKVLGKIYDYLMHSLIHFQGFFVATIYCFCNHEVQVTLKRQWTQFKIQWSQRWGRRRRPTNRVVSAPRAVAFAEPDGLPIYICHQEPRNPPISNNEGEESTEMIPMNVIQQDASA
T1 sequence (Q9WTJ5 27-148 partner): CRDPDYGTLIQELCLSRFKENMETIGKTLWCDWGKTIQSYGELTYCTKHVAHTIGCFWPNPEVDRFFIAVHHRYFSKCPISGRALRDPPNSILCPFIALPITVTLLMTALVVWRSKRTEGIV

Wistar rats [2] = experiment: Mean arterial pressure and blood glucose during CGRP infusion in rats; assay type: in vivo, rat
Protocol: (§1) Surgery. Experiments were performed on male Wistar rats. Animals were randomly assigned to experimental groups as outlined below. Induction and maintenance of surgical anesthesia was by 3-5% halothane and 2L oxygen. An initial blood sample was taken from a tail artery for measurement of baseline levels of blood glucose and lactate, electrolyte, acid base and oxygen status and serum levels of free fatty acids, triglyceride and cholesterol. Immediately following this, the trachea was cannulated and the animal ventilated at 60-70 breaths.min-1 with air supplemented with O2. The respiratory rate and end-tidal pressure (10-15 cmH2O) were adjusted to maintain end-tidal CO2 at 35-40 mmHg. Body temperature was maintained at 37° C. throughout surgery and the experiment by a heating pad. […] Blood samples were taken from this line at time zero (baseline reading), 30 minutes and every 20 minutes until the end of the experiment at 90 minutes.
(§2) Infusion. […] At the end of the infusion a terminal blood sample was taken by cardiac puncture and analysed as per the basal sample and also for various metabolites and hormones. […]
Mean arterial pressure (MAP), heart rate (HR, derived from the MAP waveform) oxygen saturation (Nonin 8600V Pulse Oximeter) and core body temperature were all continuously monitored throughout the experiment using a PowerLab/16s data acquisition module.

[3] = target: T2, metabolic amylin receptor (Rattus norvegicus, UniProt P32214); experiment: Dose-response of free fatty acid content in incubated rat soleus muscle, nanomolar (second) phase; assay type: cell-based
T2 construct: from tissue; host or cells: isolated soleus muscle strips of male Wistar rats
T2 sequence (P32214 25-479 isoform P32214-2): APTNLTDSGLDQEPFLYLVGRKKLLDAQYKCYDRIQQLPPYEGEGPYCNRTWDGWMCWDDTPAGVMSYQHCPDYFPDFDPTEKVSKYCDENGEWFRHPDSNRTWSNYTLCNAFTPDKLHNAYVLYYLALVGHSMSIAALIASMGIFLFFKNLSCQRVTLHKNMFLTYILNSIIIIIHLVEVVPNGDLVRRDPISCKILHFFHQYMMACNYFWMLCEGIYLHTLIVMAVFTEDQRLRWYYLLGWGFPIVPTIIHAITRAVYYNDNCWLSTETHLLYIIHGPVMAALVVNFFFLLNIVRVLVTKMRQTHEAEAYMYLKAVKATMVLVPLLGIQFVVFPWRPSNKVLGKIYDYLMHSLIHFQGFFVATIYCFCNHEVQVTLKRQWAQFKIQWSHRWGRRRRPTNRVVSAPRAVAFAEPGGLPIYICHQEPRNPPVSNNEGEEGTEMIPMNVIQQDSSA
T2 sequence (Q9JJ74 27-148 partner): T1 sequence (Q9WTJ5 27-148 partner) with N21D, Q38G, Y45H, H49L, H52N, T53K, R65K, I80V, A98V
Protocol: […]. This breakdown can be detected as an increase of free fatty acids. […]. Leighton et al., 1989, FEBS Lett 249:357-361). […].
Soleus muscle tissue isolation and incuhation.Immersion and incubation media was Krebs-Henseleit buffer (KHB) containing 118.5 mM NaCl, 4.75 mM KCl, 1.18 mM MgSO4.7H2O and KH2PO4, 24.8 mM NaHCO3, 2.54 mM CaCl2 and 10 mM d-glucose. The medium was gassed continuously with 95% O2/5% CO2. Incubations were preformed in KHB alone or containing various concentrations of CGRP, amylin, norepinephrine, insulin or the CGRP and amylin antagonists where appropriate. Soleus muscles of both legs were excised keeping the tissue immersed in KHB; muscles were separated into two equal parts and transferred to the incubation flasks. At the completion of incubation the muscles were snap frozen in liquid nitrogen, and then trimmed of connective tissue and all visible fat. The muscle strips were stored at −80° C. until analysis.
Lipid extraction and chromatographic separation of fatty acids. […]
Determination of tissue free fatty acids and triacylglycerol concentration by enzymatic analyses. […] Free fatty acids were quantified using a commercial method (Boehringer Mannheim) adapted for micro analyses (Cobas Mira, Roche Diagnostics), with palmitic acid standards. Triacyl glycerol levels were quantified in the total lipid fraction (Pointe Scientific) with a glycerol standard. […]

Wistar rats [4] = experiment: Serum hormones and blood metabolites following acute CGRP infusion in anaesthetised normal-fed rats; assay type: in vivo, rat
Protocol: as §1, with “pad. The carotid artery and jugular vein were cannulated with a solid-state blood pressure transducer and a saline filled PE 50 catheter respectively.” for “pad.”
as §2

Substance	IC50 [1] [nM]	Ki [1] [nM]	mean arterial pressure (Wistar rats [2]; 60 minute CGRP infusion, significant during final 10 minutes)	blood glucose concentration (Wistar rats [2]; infusion, tail blood at 5-minute intervals, FIG. 21)	EC50 ([3]; incubated rat soleus muscle, 1 h, 95% C.I. 8.5 to 95, r^2 0.51, read-out: EC50 for increased free fatty acid content, second phase) [nM]	EC50 ([3]; skeletal muscle free fatty acid, second phase, CGRP-1 or 2, read-out: EC50 of second phase of lipolysis via metabolic amylin receptor) [nM]	serum concentration, steady state over the hour infusion period (Wistar rats [4]; 100 pmoles/kg/hr infused animals) [nM]	Serum hormone concentration: CGRP (Wistar rats [4]; after CGRP infusion, control 6.3 ± 0.8) [pM]
Rat amylin	23	7.4						
rat amylin-(8-37)	1270	399						
rat CGRP-1	63	20	decrease in mean arterial pressure	significant increase in blood glucose concentration	45	~45	0.3	325 ± 75

Substitutions are numbered along the chain they refer to. Where two headings read alike, the source gives them in different places.
